Measurements as given in patent US20240360179A1, “STAPLED PEPTIDES AND METHODS THEREOF” (FOG PHARMACEUTICALS, INC., priority 2021, published 2024).

Amino acid sequences for entries named in this document (tags omitted).
UniProt P35222, whole entry: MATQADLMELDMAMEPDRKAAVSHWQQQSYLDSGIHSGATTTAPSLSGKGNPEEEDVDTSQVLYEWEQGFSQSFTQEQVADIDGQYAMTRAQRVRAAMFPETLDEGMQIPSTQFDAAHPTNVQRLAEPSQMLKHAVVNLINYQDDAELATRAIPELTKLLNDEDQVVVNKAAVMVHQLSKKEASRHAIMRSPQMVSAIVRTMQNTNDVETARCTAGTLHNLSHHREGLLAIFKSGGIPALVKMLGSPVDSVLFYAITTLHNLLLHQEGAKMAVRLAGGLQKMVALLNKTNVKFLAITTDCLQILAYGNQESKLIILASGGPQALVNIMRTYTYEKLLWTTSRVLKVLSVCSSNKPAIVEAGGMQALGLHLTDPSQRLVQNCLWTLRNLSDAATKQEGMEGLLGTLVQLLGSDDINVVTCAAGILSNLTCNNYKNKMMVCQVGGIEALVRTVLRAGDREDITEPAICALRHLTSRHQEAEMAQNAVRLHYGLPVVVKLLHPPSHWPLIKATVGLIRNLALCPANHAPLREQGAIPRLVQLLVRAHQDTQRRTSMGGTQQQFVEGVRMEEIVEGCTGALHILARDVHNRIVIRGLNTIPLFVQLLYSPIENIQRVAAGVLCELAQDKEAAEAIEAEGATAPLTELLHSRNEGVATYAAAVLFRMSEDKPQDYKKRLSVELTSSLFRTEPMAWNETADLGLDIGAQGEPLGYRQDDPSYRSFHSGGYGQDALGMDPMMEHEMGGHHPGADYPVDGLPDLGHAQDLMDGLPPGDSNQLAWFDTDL

What was measured:
[1] = biological target: T1, full-length B-Catenin (Uniprot ID P35222) (Homo sapiens, UniProt P35222); assay: biochemical; format: binding; settings: beta-Catenin FP IC50 (nM), competition fluorescence polarization
T1 construct: 10 nM full-length B-Catenin (Uniprot ID P35222)

[2] = biological target: beta-catenin/TCF4 interaction (Homo sapiens, UniProt P35222); assay: cell-based; set-up: host or cells: HEK293; settings: NanoBRET Abs IC50 (uM)

IC50 [1] [nM] | IC50 [2] [µM] | Structure (SMILES)
< 50 | 1.5 to 3 | CC(=O)N1CCC[C@]12CC=CCCCC1(CCCC=CCCCOC(=O)N3CC[C@@]4(C3)NC(=O)[C@H](CCCCNC(=O)CC[C@@H](C(=O)N[C@@H](C)C(N)=O)NC(=O)[C@H](Cc3csc5ccccc35)NC(=O)[C@H](Cc3ccccc3C(F)(F)F)NC4=O)NC(=O)[C@H](Cc3ccccc3)NC(=O)[C@H](C)NC(=O)[C@H](CC3CCCCC3)NC(=O)[C@H](Cc3cccc(C(=O)O)c3)NC(=O)[C@H](CC(=O)O)NC1=O)NC(=O)[C@H](CC(C)(C)C)NC(=O)[C@H](CC(=O)O)NC2=O (single isomer, unassigned) [I-101, Ac-PL3-Asp-Npg-B5-Asp-3COOHF-Cha-Ala-Phe-Lys*3-PyrS2-2F3MeF-BztA-GlnR*3-Ala-NH2]
< 50 | 1.5 to 3 | CC(=O)N1CCC[C@]12CC=CCCCC1(CCCC=CCCCOC(=O)N3CC[C@@]4(C3)NC(=O)[C@H](CCCCNC(=O)CC[C@@H](C(=O)N[C@@H](CC(C)C)C(N)=O)NC(=O)[C@H](Cc3csc5ccccc35)NC(=O)[C@H](Cc3ccccc3C(F)(F)F)NC4=O)NC(=O)[C@H](Cc3ccccc3)NC(=O)[C@H](C)NC(=O)[C@H](C)NC(=O)[C@H](Cc3cccc(C(=O)O)c3)NC(=O)[C@H](CC(=O)O)NC1=O)NC(=O)[C@H](CC(C)(C)C)NC(=O)[C@H](CC(=O)O)NC2=O (single isomer, unassigned) [I-104, Ac-PL3-Asp-Npg-B5-Asp-3COOHF-Ala-Ala-Phe-Lys*3-PyrS2-2F3MeF-BztA-GlnR*3-Leu-NH2]
< 50 | 1.5 to 3 | CC(=O)N1CCC[C@]12CC=CCCCC1(CCCC=CCCCOC(=O)N3CC[C@@]4(C3)NC(=O)[C@H](CCCCNC(=O)CC[C@@H](C(=O)N[C@@H](CC(C)C)C(N)=O)NC(=O)[C@H](Cc3csc5ccccc35)NC(=O)[C@H](Cc3ccccc3C(F)(F)F)NC4=O)NC(=O)[C@H](Cc3ccccc3)NC(=O)[C@H](C)NC(=O)[C@H](C)NC(=O)[C@H](Cc3cccc(C(=O)O)c3)NC(=O)[C@H](CC(=O)O)NC1=O)NC(=O)[C@H](CC1CCCCC1)NC(=O)[C@H](CC(=O)O)NC2=O (single isomer, unassigned) [I-106, Ac-PL3-Asp-Cha-B5-Asp-3COOHF-Ala-Ala-Phe-Lys*3-PyrS2-2F3MeF-BztA-GlnR*3-Leu-NH2]
< 50 | > 10 | CC(=O)N1CCC[C@]12CC=CCCCC1(CCCC=CCCCOC(=O)N3CC[C@@]4(C3)NC(=O)[C@H](CCCCNC(=O)CC[C@@H](C(=O)N[C@@H](CC(C)C)C(N)=O)NC(=O)[C@H](Cc3csc5ccccc35)NC(=O)[C@H](Cc3ccccc3C(F)(F)F)NC4=O)NC(=O)[C@H](Cc3ccccc3)NC(=O)[C@H](C)NC(=O)[C@H](CC(C)(C)C)NC(=O)[C@H](Cc3cccc(C(=O)O)c3)NC(=O)[C@H](CC(=O)O)NC1=O)NC(=O)[C@H](CC(C)(C)C)NC(=O)[C@H](CC(=O)O)NC2=O (single isomer, unassigned) [I-108, Ac-PL3-Asp-Npg-B5-Asp-3COOHF-Npg-Ala-Phe-Lys*3-PyrS2-2F3MeF-BztA-GlnR*3-Leu-NH2]
50 to 200 | 3 to 10 | CC(=O)N1CCC[C@]12CC=CCCCC1(CCCC=CCCCOC(=O)N3CC[C@@]4(C3)NC(=O)[C@H](CCCCNC(=O)CC[C@@H](C(=O)N[C@@H](CC(C)C)C(N)=O)NC(=O)[C@H](Cc3csc5ccccc35)NC(=O)[C@H](Cc3ccccc3C(F)(F)F)NC4=O)NC(=O)[C@H](Cc3ccccc3)NC(=O)[C@H](C)NC(=O)[C@H](CC3CCCCC3)NC(=O)[C@H](Cc3cccc(C(=O)O)c3)NC(=O)[C@H](CC(=O)O)NC1=O)NC(=O)[C@H](CC(C)(C)C)NC(=O)[C@H](CC(=O)O)NC2=O (single isomer, unassigned) [I-110, Ac-PL3-Asp-Npg-B5-Asp-3COOHF-Cha-Ala-Phe-Lys*3-PyrS2-2F3MeF-BztA-GlnR*3-Leu-NH2]
